## Antibody variant affinities, Ab-14 heavy chain, assay B

All variants were tested on one target, the spike HR2 peptide PDVDLGDISGINAS (SARS-CoV-2).

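Phage display of a naive human antibody library on the peptide gave the parent. The variants were designed computationally from a first round of random CDR variants and then made and measured. Group labels follow the data file (Ctrl: baseline library sampled from a position-specific scoring matrix, with some repeated check sequences; Rand: our label for a block that the file lists under HC and that is probably the random mutants of the ten best first-round binders; En: ensemble of fine-tuned language models; GP: Gaussian process model; GPLM: also part of the Gaussian process libraries; HC: hill climbing; Gen: genetic algorithm; Gibbs: Gibbs sampling; a sequence that several methods proposed may carry one label only). The assay is AlphaSeq: two haploid yeast populations carry antibody and antigen on their surface. The frequency of each diploid, read from paired DNA barcodes, reflects how well the two displayed proteins bind. Read counts were normalised to the haploid input and turned into Kd by a linear fit to BCL2-family pairs of known affinity, for each replicate. The assay was run in six technical replicates.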

The variants keep the light chain, the linker and the frameworks of Ab-14 (scFv order VH, a (GGGGS)3 linker, VL).
VH: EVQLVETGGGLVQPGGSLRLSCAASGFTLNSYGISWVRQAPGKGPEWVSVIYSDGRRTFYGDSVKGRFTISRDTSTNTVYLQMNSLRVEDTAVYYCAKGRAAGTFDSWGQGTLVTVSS
VL: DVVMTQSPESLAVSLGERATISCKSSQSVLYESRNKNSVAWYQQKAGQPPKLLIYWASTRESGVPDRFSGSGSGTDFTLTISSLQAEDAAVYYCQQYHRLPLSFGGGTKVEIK

Substitutions are numbered in sequence along the VH above, starting at 1 (not Kabat). This list holds designs with at most six substitutions. Each Kd is an estimate from the mating assay, the geometric mean of the replicates in which the pair was seen; lower is stronger. An entry "nd" has no value in the source: the pair was not observed among the diploids in any replicate. This suggests poor binding but is not conclusive.

- T28S+R100H+S107A [GP_Gibbs]: 2.2 nM (6 of 6 replicates; controls 0 of 18)
- S53F+R56E+G61D+T104C [Ctrl]: nd (0 of 6 replicates; controls 0 of 18)
- A101E+T104E+S107T [Ctrl]: nd (0 of 6 replicates; controls 0 of 18)
- T28N+S31Q+F59M+G103V [Ctrl]: nd (0 of 6 replicates; controls 0 of 18)
- T28D+S31E+S53A+F59A+G61I+R100E [En_HC]: 250 pM (6 of 6 replicates; controls 0 of 18)
- G61M+R100Q+A101L+S107R [GP_HC]: 42 nM (1 of 6 replicates; controls 0 of 18)
- S31E+A101M+S107T [GPLM_HC]: 8.1 nM (6 of 6 replicates; controls 0 of 18)
- T28G+S63A+R100K+A101T [GP_Gibbs]: 7.4 nM (6 of 6 replicates; controls 0 of 18)
- F27E+T28S+S31E+A101N [GP_Gibbs]: nd (0 of 6 replicates; controls 0 of 18)
- R56C+D106F [Ctrl]: nd (0 of 6 replicates; controls 0 of 18)
- L29P+K65R+G99E [Ctrl]: nd (0 of 6 replicates; controls 1 of 18)
- T28G+S31D+G61H [GP_Gibbs]: 18 nM (6 of 6 replicates; controls 0 of 18)
- T28D+R100C+A101Q [GP_Gen]: 5.5 nM (6 of 6 replicates; controls 0 of 18)
- F27M+G61D+R100Q+A101L [GPLM_HC]: 4.0 nM (5 of 6 replicates; controls 1 of 18)
- T28D+R100E [GPLM_Gen]: 3.6 nM (6 of 6 replicates; controls 0 of 18)
- T28D+A101E+S107V [GP_Gen]: 1.4 nM (6 of 6 replicates; controls 0 of 18)
- T28S+G61A+S63N+A101E [GPLM_Gen]: 370 pM (6 of 6 replicates; controls 0 of 18)
- T28C+F59M+G61I [Ctrl]: nd (0 of 6 replicates; controls 0 of 18)
- S31E+G61D+A101W [GP_HC]: 3.2 nM (6 of 6 replicates; controls 1 of 18)
- N30D+G61K+R100K [GP_Gibbs]: 5.3 nM (6 of 6 replicates; controls 2 of 18)
- S31E+D106E+S107L [GPLM_HC]: 9.5 nM (6 of 6 replicates; controls 1 of 18)
- G61D+A101I [Ctrl]: 1.3 nM (6 of 6 replicates; controls 0 of 18)
- T28N+I34R+T104L [Ctrl]: nd (0 of 6 replicates; controls 0 of 18)
- T28S+S63P+R100K+A101I [GP_Gibbs]: 2.6 nM (6 of 6 replicates; controls 0 of 18)
- S31L+S53A+F59E+F105N+D106K [Rand]: nd (0 of 6 replicates; controls 0 of 18)
- S63N+R100Q+A101T+S107L [GP_Gibbs]: nd (0 of 6 replicates; controls 0 of 18)
- S31D+G61A+A101V [GPLM_Gen]: 380 pM (6 of 6 replicates; controls 0 of 18)
- S53A+R100E+A101F+G103V [Ctrl]: nd (0 of 6 replicates; controls 0 of 18)
- T28S+S31N+S63H+A101T [GPLM_Gen]: 330 pM (4 of 6 replicates; controls 0 of 18)
- T28S+S63N+R100I+A101T+S107T [GP_Gibbs]: 880 pM (6 of 6 replicates; controls 0 of 18)
- G26L+T28W+S31E+G61R+A101T [GP_HC]: 350 nM (3 of 6 replicates; controls 0 of 18)
- T28H+A101E [GP_Gen]: 19 nM (5 of 6 replicates; controls 0 of 18)
- T28N+G61A+R100W+A101E [GPLM_Gibbs]: 5.6 nM (6 of 6 replicates; controls 0 of 18)
- G26K+T28S+G61A [GPLM_Gen]: 33 nM (4 of 6 replicates; controls 0 of 18)
- N30M+G61Q+D106F [Ctrl]: 3.5 nM (1 of 6 replicates; controls 0 of 18)
- S31E+Y52T+G61T+A101F [Rand]: 92 nM (1 of 6 replicates; controls 0 of 18)
- N30D+S63R+A101T+S107K [GP_Gibbs]: 25 nM (5 of 6 replicates; controls 0 of 18)
- G61D+R100Q+A101R+A102Y [Rand]: nd (0 of 6 replicates; controls 0 of 18)
- T28S+S31E+R56K+A101N [GPLM_Gen]: 310 pM (6 of 6 replicates; controls 0 of 18)
- T28D+S31E+S53A+G61S+R100E+S107N [En_HC]: 2.6 nM (6 of 6 replicates; controls 0 of 18)
- S31E+F59Q+G61I+D106W [GP_HC]: nd (0 of 6 replicates; controls 0 of 18)
- S31D+G61H+D106M [GP_HC]: nd (0 of 6 replicates; controls 0 of 18)
- T28S+G61Q+S63R+R100Q [GP_Gibbs]: 88 nM (4 of 6 replicates; controls 0 of 18)
- S31E+G61I+S107K [GP_HC]: 7.0 nM (6 of 6 replicates; controls 0 of 18)
- G26M+T28D+G61V+A101T [GP_Gen]: nd (0 of 6 replicates; controls 0 of 18)
- T28S+G61D+R100K+A101L [GPLM_Gibbs]: nd (0 of 6 replicates; controls 0 of 18)
- T28D+F59Y [GPLM_HC]: 4.2 nM (6 of 6 replicates; controls 0 of 18)
- N30E+G61A+R100Q+A101T [GPLM_Gibbs]: 1.2 nM (6 of 6 replicates; controls 0 of 18)
- K65R+A101C+A102E [Ctrl]: nd (0 of 6 replicates; controls 0 of 18)
- R56M+G99A+D106L+S107A [Ctrl]: nd (0 of 6 replicates; controls 0 of 18)
- G61S+R100K+S107T [GPLM_Gen]: 7.2 nM (6 of 6 replicates; controls 0 of 18)

The parent sequence was in this pool as ten entries: three were never detected, three once, and four in most replicates, with averages from 2.2 nM to 240 nM. The authors' rule: three or more of the six replicates give a measured affinity, fewer mean a poor binder. Values of this round are not directly comparable with the first-round values of the same sequences. Empty control strains, which show no peptide, gave a signal in 1% of pairings with all heavy chain designs; the median was 120 nM and 95% of these signals were weaker than 7.0 nM. No background was subtracted. The control count says in how many pairings with the empty strains this scFv gave a signal.

Source: Li et al. 2023 (doi:10.1038/s41467-023-39022-2), MIT Lincoln Laboratory and A-Alpha Bio; data file from the FLAb repository.